Values quoted from earlier work as cited in US6479509B1, “Method of promoting smoking cessation” (priority 2000, dated 2002).
pIC50: −log10 of the molar value.

Chains of the proteins cited; added tags and fusions are not shown.
UniProt P23977, whole entry: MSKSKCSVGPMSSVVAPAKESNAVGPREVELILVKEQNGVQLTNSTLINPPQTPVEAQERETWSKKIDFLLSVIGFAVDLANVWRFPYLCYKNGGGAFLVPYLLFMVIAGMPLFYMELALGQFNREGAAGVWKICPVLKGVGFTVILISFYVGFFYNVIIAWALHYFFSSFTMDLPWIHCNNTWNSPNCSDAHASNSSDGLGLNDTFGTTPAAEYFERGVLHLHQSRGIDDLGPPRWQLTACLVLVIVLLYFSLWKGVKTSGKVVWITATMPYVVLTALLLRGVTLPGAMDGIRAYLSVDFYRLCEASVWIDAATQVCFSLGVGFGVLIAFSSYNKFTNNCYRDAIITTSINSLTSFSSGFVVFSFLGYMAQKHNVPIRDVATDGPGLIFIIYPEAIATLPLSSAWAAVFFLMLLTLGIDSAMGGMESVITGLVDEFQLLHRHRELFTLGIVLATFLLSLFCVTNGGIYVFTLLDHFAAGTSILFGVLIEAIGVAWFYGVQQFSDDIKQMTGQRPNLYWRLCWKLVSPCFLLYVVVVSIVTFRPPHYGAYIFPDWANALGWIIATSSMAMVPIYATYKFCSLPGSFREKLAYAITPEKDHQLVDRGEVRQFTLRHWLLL

Target: T1, Dopamine transporter (Rattus norvegicus, UniProt P23977)
T1 construct: from tissue; host or cells: brain
Conditions: brain; read-out: Dopamine [3H]WIN 35,428 IC50; cited from earlier work

In the case of COC(=O)[C@H]1[C@@H](c2ccc(Cl)cc2)C[C@H]2CC[C@H]1N2C [RTI-31], the pIC50 is given as 8.95.
